# Shown are actives, neighbours in structure and some others; about 0.43% of the full set was active somewhere.
# Rango complex inh: inhibitors of Rango-importin beta complex formation; Potency, µM (top dose mostly 92.2 µM), without a hit: at the highest dose inhibition of complex formation; AID 540263; Rango CFP/YFP FRET sensor + importin beta, 45 min; Q14974; 0.031% of 340,000 active; calls by dose curve;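 note: 0% = DMSO wells and 100% = buffer wells lacking importin beta; nearly all actives have a fitted effect of over 15% in size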
#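 FRET biosensor Rango (snurportin 1 IBB between N-terminal EYFP and C-terminal Cerulean), 50 nM in PBS/1 mM DTT/0.02% Tween-20/0.1% BSA, preincubated 5 min RT with compound; 0.125 microM importin beta added, 45 min RT, CFP/YFP FRET ratio read.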
# EPAC1 antag: blocks human EPAC1 exchange factor | EPAC1 GEF assay, Rap1b-BODIPY-GDP exchange fluorescence | Potency, µM (top dose mostly 115 µM), inactives show at the top dose activity change, negative = inhibition, hits mostly inhibitors | 0.14% of 360,000 active;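 note: plate controls were vehicle for no effect and positive control for full effect; nearly all actives have a fitted effect of over 50% in size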
# Rango release inh: prevents RanGTP from dissociating the Rango-importin beta complex. Biochemical FRET Rango-importin beta, RanGTP-induced dissociation. Potency, µM (highest dose often 46.1 µM), without a hit: top-dose activity change, negative = inhibition. O95149+P62826. 0.071% of 340,000 active; calls by dose curve; note: % of control where 0% means no effect; nearly all actives have a fitted effect of over 45% in size
#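 Rango FRET biosensor (snurportin-1 IBB flanked by N-terminal EYFP and C-terminal CFP10) at 0.1 uM, with 0.25 uM importin beta in PBS, 1mM DTT, 0.02% Tween-20, 0.1% BSA. 0.6 uM Ran, 2mM GTP and 0.2 uM RCC1 were then added for 45 min at room temperature. Inhibition read as loss of FRET rise.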
# EPAC1 agonist: agonists of human EPAC1 | EPAC1 agonist qHTS, biochemical assay; response scale: 100% = response to 6.5 mM cAMP | Potency, µM (series often up to 154 µM), for inactives: at the highest dose activation, most hits filed as activators | 0.073% of 360,000 active | AID 720707; note: nearly all actives have a fitted effect of over 60% in size
#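 Nucleotide exchange assay: 100 nM EPAC1 with 250 nM Rap1B loaded with BODIPY-GDP and 50 uM GDP, room temperature. Fluorescence (480/540 nm) read every 5 min for 30 min; signal change normalized to 6.5 mM cAMP as full agonist.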
# EPAC2 antag: blocks human EPAC2 exchange factor; 0.18% of 360,000 active; AID 720708; Potency, µM (titrated, usually from 114 µM), for inactives: top-dose activity, negative = inhibition, hits mostly inhibitors; EPAC2 GEF exchange of Rap1B-BODIPY-GDP, fluorescence; Q8WZA2; note: % is set by controls: 0 for no effect and ±100 for the full control effect; nearly all actives have a fitted effect of over 45% in size
# EPAC2 agonist: activates human EPAC2 exchange factor. Q8WZA2. EPAC2 activation, biochemical qHTS; response scale: 100% = 6.5 mM cAMP response. Potency, µM (top dose mostly 154 µM), inactives show at the top dose activation, hits mostly activators. 0.079% of 360,000 active. AID 720711; note: nearly all actives have a fitted effect of over 50% in size
#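 EPAC2 (100 nM) mixed with Rap1B loaded with BODIPY-GDP (250 nM) plus 50 uM unlabeled GDP; compounds pinned in, 5 min RT, then read every 5 min for 30 min (ex 480, em 540 nm). Normalized to cAMP control.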
# * = called active by the depositor; ? = inconclusive; . = no result; [ ] = remark or other dose. Unless noted, calls come from the whole dose curve; as a rule, active = well fitted curve in the direction sought with a large enough effect; inconclusive = small, poorly fitted or top-dose-only effect, or another doubt; inactive = no such curve, though single readings can be large; an effect the other way counts as inactive or inconclusive. Potency is the fitted concentration of half-maximal effect.
(1) COc1ccc2cc(C3CC=C(COC(C)=O)CN3S(=O)(=O)c3ccccc3[N+](=O)[O-])n(C(=O)OC(C)(C)C)c2c1 (stereo not given)
(2) O=C(O)CCCN1C(=O)C2C3CC(C2C1=O)C1C(c2ccccc2)c2sc(=O)[nH]c2SC31 (stereo not given)
(3) CC(C(=O)O)N1C(=O)C2C3CC(C2C1=O)C1C(c2ccccc2)c2sc(=O)[nH]c2SC31 (stereo not given)
(4) COC(=O)C[C@@H]1C=C[C@H](NC(=O)Cc2ccccn2)[C@@H](CO)O1
(5) CCOC(=O)[C@]12CCCC=C1N(Cc1ccc(Cl)cc1Cl)C(=O)[C@H](CC(=O)N1CCOCC1)C2

assay / compound | 1 | 2 | 3 | 4 | 5
Rango complex inh | . | ? | ? | . | .
EPAC1 antag | -3.9% | 4.1% | -7.1% | 0.5% | 2.4%
Rango release inh | . | -2.2% | 23.1µM* | . | .
EPAC1 agonist | -0.3% | 10.4% | 4.6% | 2.7% | -14.9%
EPAC2 antag | 4.0% | 3.4% | -20.5% | 4.6% | -12.9%
EPAC2 agonist | 11.1% | 2.8% | 7.6% | 11.8% | 2.8%

(6) C#CCNC(=O)C[C@@H]1C[C@@]2(C(=O)OCC)CCC=C2N(Cc2ccc(Cl)cc2Cl)C1=O
(7) Cc1ccc(NS(=O)(=O)c2cc([N+](=O)[O-])ccc2NNC(=S)Nc2cc(C)ccc2C)c(C)c1
(8) Cc1ccc(NS(=O)(=O)c2cc([N+](=O)[O-])ccc2NNC(=S)Nc2cccc(Cl)c2)c(C)c1
(9) O=C(Nc1cccc(Cl)c1)N(Cc1nc2ccccc2c(=O)[nH]1)Cc1cccs1
(10) CCCCCN1C=CC=C/C1=C\C=C(C#N)C#N

assay / compound | 6 | 7 | 8 | 9 | 10
Rango complex inh | . | 5.7% | 2.7% | 0.7% | ?
EPAC1 antag | -14.0% | -12.8% | 50.1µM* | -4.8% | -3.8%
Rango release inh | . | 32.9% | -19.9% | -10.7% | ?
EPAC1 agonist | -9.5% | 13.5% | -17.8% | 89.1µM* | -4.4%
EPAC2 antag | -25.4% | -4.4% | 50.1µM* | -1.7% | 240.1%
EPAC2 agonist | 2.5% | -5.1% | -16.0% | 2.4% | -436.7%

(11) CCCCCCN1C=CC=C/C1=C/C=C(C#N)C#N
(12) CC1(C2CCC3C4CCC5CC6(CCC5(C)C4C(=O)CC32C)OCCO6)OCCO1 (stereo not given)
(13) CC12CCC3(CC1CCC1OC12)OCCO3 (stereo not given)
(14) COc1ccc([C@H]2CC(=O)C[C@@H](CCn3nnc4ccccc43)O2)cc1
(15) Cc1cccc2cc3c(N)c(C(=O)Nc4ccc(N5CCOCC5)cc4)sc3nc12

assay / compound | 11 | 12 | 13 | 14 | 15
Rango complex inh | ? | -0.6% | -5.5% | . | 6.7%
EPAC1 antag | 89.1µM* | ? | -21.3% | 0.4% | -3.9%
Rango release inh | ? | -2.0% | -1.0% | . | 13.7%
EPAC1 agonist | -550.7% | 8.2% | -2.5% | -2.2% | 14.0%
EPAC2 antag | 215.9% | 56.2µM* | 0.2% | -2.6% | -1.1%
EPAC2 agonist | -655.5% | 4.5% | -1.1% | 2.7% | 27.9%

(16) CCc1cccc2cc3c(N)c(C(=O)Nc4ccc(S(=O)(=O)N5CCCC5)cc4)sc3nc12
(17) Cc1cc2nn(-c3ccc(F)cc3)nc2cc1N
(18) O=C(COC(=O)C1CCN(c2ccc(C(F)(F)F)cn2)CC1)Nc1ccc(Cl)cc1
(19) CN(CC(=O)Nc1ccc(F)cc1)C(=O)COC(=O)C1CCN(c2ccc(C(F)(F)F)cn2)CC1
(20) Cc1ccc(F)c(S(=O)(=O)NC(=O)C2(C)CCN2C(=O)Cc2cccc3ccccc23)c1 (stereo not given)

assay / compound | 16 | 17 | 18 | 19 | 20
Rango complex inh | ? | ? | 0.9% | -1.1% | .
EPAC1 antag | 50.1µM* | -2.2% | -22.5% | -15.8% | -5.5%
Rango release inh | ? | 9.2µM* | -0.4% | 27.0% | .
EPAC1 agonist | -324.3% | 8.5% | 5.7% | 100µM* | -6.3%
EPAC2 antag | 56.2µM* | -9.1% | -9.9% | -17.1% | 5.8%
EPAC2 agonist | -99.7% | -0.2% | 3.3% | -0.2% | -3.3%

(21) CC(=O)NC(c1ccco1)c1cc(Cl)c2cccnc2c1O (stereo not given)
(22) CC(C)C(=O)NC(c1ccccc1)c1cc([N+](=O)[O-])c2cccnc2c1O (stereo not given)
(23) CC(=O)NC(c1ccc(C)cc1)c1cc(Cl)c2cccnc2c1O (stereo not given)
(24) CCC(=O)NC(c1ccc(OC)cc1)c1cc(Cl)c2cccnc2c1O (stereo not given)
(25) COc1ccc(C(NC(=O)c2cccnc2)c2cc(Cl)c3cccnc3c2O)cc1OC (stereo not given)

assay / compound | 21 | 22 | 23 | 24 | 25
Rango complex inh | . | -1.0% | 4.7% | 0.8% | 36.6µM*
EPAC1 antag | -11.6% | 56.2µM* | -9.1% | 1.9% | 5.0%
Rango release inh | . | 6.6% | -14.3% | -1.2% | ?
EPAC1 agonist | 5.3% | 18.2% | -1.7% | -7.3% | 5.7%
EPAC2 antag | ? | -12.3% | 39.8µM* | ? | 28.3%
EPAC2 agonist | 1.8% | 15.2% | 8.0% | 26.6% | 5.6%

(26) COC(=O)/C=C1\OC(c2ccccc2)c2ccccc21 (stereo not given)
(27) c1ccc(C[C@H]2COc3c4ccccc4nn32)cc1
(28) N#Cc1nnn2c1nc(N)c1c(Cl)cccc12
(29) O=C(Oc1ccc2ccc(=O)oc2c1)c1ccco1
(30) COc1ccccc1C(=O)Oc1ccc2ccc(=O)oc2c1

assay / compound | 26 | 27 | 28 | 29 | 30
Rango complex inh | . | . | . | ? | ?
EPAC1 antag | 1.9% | 9.3% | 11.8% | -5.4% | -0.5%
Rango release inh | . | . | . | 16.4µM* | ?
EPAC1 agonist | 10.9% | 7.2% | 4.8% | -0.7% | 4.7%
EPAC2 antag | ? | -4.0% | 11.8% | 3.1% | 1.8%
EPAC2 agonist | 7.0% | 6.0% | 11.2% | 5.3% | 14.2%

(31) O=c1oc2c3c4c(cc2c(C(F)(F)F)c1CCN1CCOCC1)CCCN4CCC3
(32) CC(C)c1cc(=O)oc2c3c4c(cc12)CCCN4CCC3
(33) CC1(C(=O)Nc2cccc3ccccc23)CCN1C(=O)C1(c2ccccc2)CCCC1 (stereo not given)
(34) Cc1cc(N2CCN(C(C(=O)NC3CCCC3)C(C)(C)C)CC2)c2ccccc2n1 (stereo not given)
(35) COc1ccc(-c2ccc(-c3noc(-c4ccccc4C)n3)c(OC)n2)cc1

assay / compound | 31 | 32 | 33 | 34 | 35
Rango complex inh | ? | ? | . | . | ?
EPAC1 antag | 99.9% | -1.9% | -3.5% | 12.6% | 0.7%
Rango release inh | ? | ? | . | . | 6.51µM*[inhibitor]
EPAC1 agonist | ? | 16.4% | -6.9% | 4.3% | 4.3%
EPAC2 antag | 59.8% | -6.3% | -1.5% | 12.9% | 1.2%[57.1 µM]
EPAC2 agonist | 112µM* | 18.1% | 6.3% | 3.3% | -1.0%

# Pulled one by one from the entries so far:
(34) Cc1cc(N2CCN(C(C(=O)NC3CCCC3)C(C)(C)C)CC2)c2ccccc2n1 (stereo not given)
(35) COc1ccc(-c2ccc(-c3noc(-c4ccccc4C)n3)c(OC)n2)cc1
(33) CC1(C(=O)Nc2cccc3ccccc23)CCN1C(=O)C1(c2ccccc2)CCCC1 (stereo not given)
(31) O=c1oc2c3c4c(cc2c(C(F)(F)F)c1CCN1CCOCC1)CCCN4CCC3

assay / compound | 34 | 35 | 33 | 31
Rango complex inh | . | ? | . | ?
EPAC1 antag | 12.6% | 0.7% | -3.5% | 99.9%
Rango release inh | . | 6.51µM*[inhibitor] | . | ?
EPAC1 agonist | 4.3% | 4.3% | -6.9% | ?
EPAC2 antag | 12.9% | 1.2%[57.1 µM] | -1.5% | 59.8%
EPAC2 agonist | 3.3% | -1.0% | 6.3% | 112µM*

# Other entries follow.
(36) Cc1cc2c(cc1C)-n1nnnc1C(N(C)CCc1ccccc1)C(=O)N2 (stereo not given)
(37) CCOc1cccc(C(=O)Nc2ccc3oc(Cc4ccc(Cl)cc4)nc3c2)c1
(38) CO[C@H]1CN(C)C(=O)c2cc(NC(=O)c3ccccc3)ccc2OC[C@H](C)NC[C@@H]1C
(39) N#Cc1c(Nc2ccccc2)sc(C(=O)c2ccccc2)c1N
(40) COc1ccc(CC(N)c2csc(NC(=O)c3cc(C(C)(C)C)oc3C)n2)cc1 (stereo not given)

assay / compound | 36 | 37 | 38 | 39 | 40
Rango complex inh | . | -3.5% | . | -0.3% | .
EPAC1 antag | 4.9% | -10.7% | 7.4% | 2.6% | -15.6%
Rango release inh | . | -0.1% | . | -12.9% | .
EPAC1 agonist | -0.3% | 6.2% | -2.3% | 3.0% | -24.7%
EPAC2 antag | -8.3% | -2.1% | -6.4% | 35.5µM* | 5.2%
EPAC2 agonist | 10.6% | 7.94µM* | 3.1% | 1.0% | -6.4%
